ChEMBL document CHEMBL1125665, “Quaternary salts of 2-[(hydroxyimino)methyl]imidazole. 5. Structure-activity relationships for side-chain nitro-, sulfone-, amino-, and aminosulfonyl-substituted analogues for therapy against anticholinesterase intoxication” (1991)

What follows are compounds tested against T1, Acetylcholinesterase (Mus musculus) (UniProt P21836) (assay: antidotal activity measured in mice exposed to soman; activity expressed as the no. of survivors at 24 hr out of population of 10 mice exposed intramuscularly at the dose 1/4 of 2LD50 of the compound).
T1 sequence (whole entry): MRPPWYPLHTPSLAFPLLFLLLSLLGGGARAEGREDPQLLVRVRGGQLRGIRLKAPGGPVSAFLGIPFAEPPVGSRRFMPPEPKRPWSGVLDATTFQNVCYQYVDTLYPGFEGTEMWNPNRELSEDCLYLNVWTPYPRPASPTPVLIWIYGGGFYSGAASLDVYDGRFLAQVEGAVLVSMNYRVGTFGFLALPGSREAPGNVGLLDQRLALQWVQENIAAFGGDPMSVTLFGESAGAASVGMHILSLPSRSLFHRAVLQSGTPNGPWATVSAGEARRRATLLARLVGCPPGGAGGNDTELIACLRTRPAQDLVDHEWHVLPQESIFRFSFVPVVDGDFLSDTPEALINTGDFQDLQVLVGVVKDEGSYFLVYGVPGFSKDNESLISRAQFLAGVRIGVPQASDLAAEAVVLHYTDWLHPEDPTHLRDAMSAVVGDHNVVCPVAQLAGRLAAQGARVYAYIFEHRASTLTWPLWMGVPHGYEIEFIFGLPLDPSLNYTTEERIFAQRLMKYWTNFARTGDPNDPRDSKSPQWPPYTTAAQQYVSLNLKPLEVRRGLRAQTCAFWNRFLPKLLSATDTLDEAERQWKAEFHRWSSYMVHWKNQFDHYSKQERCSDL

Row | Structure (SMILES) | No. of survivors
1 | C[n+]1ccn(CCCS(C)(=O)=O)c1/C=N/O | 6
2 | Cc1n(CCCN(C)S(=O)(=O)C(F)(F)F)cc[n+]1C | 5
3 | C[n+]1ccn(CCCCCNS(=O)(=O)C(F)(F)F)c1/C=N/O | 0
4 | C[n+]1ccn(CCNS(=O)(=O)C(F)(F)F)c1/C=N/O | 7
5 | CC(CCC[N+](=O)[O-])OCn1cc[n+](C)c1/C=N/O (stereo not drawn) | 0
6 | C[n+]1ccn(CCCN(Cc2ccccc2)S(=O)(=O)C(F)(F)F)c1/C=N/O | 5
7 | CCN(CCCn1cc[n+](C)c1/C=N/O)S(=O)(=O)C(F)(F)F | 7
8 | CN(CCn1cc[n+](C)c1/C=N/O)S(=O)(=O)c1ccccc1 | 8
9 | CN(CCn1cc[n+](C)c1/C=N/O)S(C)(=O)=O | 8
10 | CC(OCn1cc[n+](C)c1/C=N/O)C(C)(C)[N+](=O)[O-] (stereo not drawn) | 8
11 | C[n+]1ccn(CCN(Cc2ccccc2)S(=O)(=O)C(F)(F)F)c1/C=N/O | 4

Each compound was assayed against T1, Acetylcholinesterase (Mus musculus) (assay: Antidotal activity measured in mice exposed to soman; activity expressed as the no. of survivors at 24 hr out of population of 10 mice exposed intramuscularly at a dose 1/16 of 2LD50 of the compound).

Row | Structure (SMILES) | No. of survivors
12 | C[n+]1ccn(CCCS(C)(=O)=O)c1/C=N/O | 2
13 | Cc1n(CCCN(C)S(=O)(=O)C(F)(F)F)cc[n+]1C | 4
14 | C[n+]1ccn(CCCCCNS(=O)(=O)C(F)(F)F)c1/C=N/O | 0
15 | C[n+]1ccn(CCNS(=O)(=O)C(F)(F)F)c1/C=N/O | 3
16 | CC(CCC[N+](=O)[O-])OCn1cc[n+](C)c1/C=N/O (stereo not drawn) | 0
17 | C[n+]1ccn(CCCN(Cc2ccccc2)S(=O)(=O)C(F)(F)F)c1/C=N/O | 4
18 | CCN(CCCn1cc[n+](C)c1/C=N/O)S(=O)(=O)C(F)(F)F | 4
19 | CN(CCn1cc[n+](C)c1/C=N/O)S(=O)(=O)c1ccccc1 | 10
20 | CN(CCn1cc[n+](C)c1/C=N/O)S(C)(=O)=O | 10
21 | CC(OCn1cc[n+](C)c1/C=N/O)C(C)(C)[N+](=O)[O-] (stereo not drawn) | 5
22 | C[n+]1ccn(CCN(Cc2ccccc2)S(=O)(=O)C(F)(F)F)c1/C=N/O | 3

Each compound was assayed against T1, Acetylcholinesterase (Mus musculus) (assay: Antidotal activity measured in mice exposed to tabun; activity expressed as the no. of survivors at 24 hr out of population of 10 mice each exposed intramuscularly at the dose 1/16 of 2LD50 of the compound).

Row | Structure (SMILES) | No. of survivors
23 | C[n+]1ccn(CCCS(C)(=O)=O)c1/C=N/O | 1
24 | Cc1n(CCCN(C)S(=O)(=O)C(F)(F)F)cc[n+]1C | 0
25 | C[n+]1ccn(CCCCCNS(=O)(=O)C(F)(F)F)c1/C=N/O | 1
26 | C[n+]1ccn(CCNS(=O)(=O)C(F)(F)F)c1/C=N/O | 0
27 | CC(CCC[N+](=O)[O-])OCn1cc[n+](C)c1/C=N/O (stereo not drawn) | 0
28 | C[n+]1ccn(CCCN(Cc2ccccc2)S(=O)(=O)C(F)(F)F)c1/C=N/O | 0
29 | CCN(CCCn1cc[n+](C)c1/C=N/O)S(=O)(=O)C(F)(F)F | 2
30 | CN(CCn1cc[n+](C)c1/C=N/O)S(=O)(=O)c1ccccc1 | 3
31 | CN(CCn1cc[n+](C)c1/C=N/O)S(C)(=O)=O | 7
32 | CC(OCn1cc[n+](C)c1/C=N/O)C(C)(C)[N+](=O)[O-] (stereo not drawn) | 7
33 | C[n+]1ccn(CCN(Cc2ccccc2)S(=O)(=O)C(F)(F)F)c1/C=N/O | 0
